In the library only some 1.1% were active in any assay of this set; here they are far more common.
miR-21 reporter – miR-21 reporter, rising signal; HeLa miR-21 FLuc reporter, luciferase, 48 h; Potency, µM (highest dose often 38.3 µM); 340,000 tested, under 10 active; AID 2288; active = well fitted rising curve with a large enough effect; inconclusive = small, poorly fitted or top-dose-only effect; inactive = no such curve, though single readings can be large or run the other way;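 further: miR-21 action dims this reporter so a rising signal means less miR-21 action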
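Luminescence from a firefly luciferase reporter carrying a miR-21 binding site downstream, stably expressed under a CMV promoter in HeLa cells that make miR-21 endogenously, reports miRNA modulation after 48 h compound exposure up to approximately 40uM final.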
PINK1 expr mod – modulators of PINK1 expression; PINK1 immunofluorescence, high-content cytometry, 24 h; Potency, µM (doses to about 76.6 µM), hits mostly activators; 410,000 tested, 0.2% active; AID 624263; active = well fitted activation curve with a large enough effect; inconclusive = small, poorly fitted or top-dose-only effect; cell line not stated here; also: nearly all actives have a fitted effect of over 65% in size
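Stable cell line treated 24 h with compounds at 5 concentrations (CCCP controls), then fixed and immunostained for PINK1 plus nuclear and cell stains; PINK1 immunofluorescence quantified by laser-scanning microplate cytometry.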
TrxR1 substrate – is turned over as a substrate by rat TrxR1. O89049. purified TrxR1 substrate turnover, NADPH consumption readout. Potency, µM (series often up to 114 µM). 390,000 tested, 0.01% active. AID 588456; also: nearly all actives have a fitted effect of over 50% in size
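Rat TrxR1, dispensed at 90 nM, was prereduced with 400 uM NADPH (final) for 5 min at ~22 deg C, then incubated with compound 15 min before 400 uM selenite. A first-read NADPH fluorescence drop versus no-compound background flagged substrates.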
rTrxR1 inhibitor – blocks rat thioredoxin reductase 1; 390,000 tested, 1% active; AID 588453; recombinant rTrxR1, NADPH fluorescence consumption, selenite substrate; Potency, µM (highest dose often 114 µM), usual class: inhibitors; also: nearly all actives have a fitted effect of over 65% in size
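Rat TrxR1 (90 nM in the dispensed reagent) was pre-reduced with 400 uM NADPH for 5 min at room temperature, then incubated with compound for 15 min. After 400 uM selenite was added, NADPH fluorescence (Ex 340/Em 450 nm) was followed for 8 min.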
GALK inhibitor – galactokinase (human) inhibition; P51570; Purified GALK, Kinase-Glo residual ATP luminescence; Potency, µM (doses to about 57.5 µM), most hits filed as inhibitors; 270,000 tested, 0.007% active; AID 1868
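Luminescence from leftover ATP (Ultra-Glo luciferase/luciferin) served as read-out after a 1 h room-temperature reaction of 5 nM GALK with 35 uM ATP and 100 uM galactose.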
Hits are given with their value; - = inactive; ? = inconclusive; . = no result given. Unless noted, calls follow the shape of the dose curve; as a rule, active = well fitted curve in the direction sought with a large enough effect; inconclusive = small, poorly fitted or top-dose-only effect, or another doubt; inactive = no such curve, though single readings can be large; an effect the other way counts as inactive or inconclusive.

SMILES | miR-21 reporter | PINK1 expr mod | TrxR1 substrate | rTrxR1 inhibitor | GALK inhibitor
O=C(c1ccccc1)c1ccccc1N1C(=O)C=CC1=O | ? | - | - | 2.2µM | -
O=C1C=CC(=O)N1c1ccccn1 | . | - | - | ? | .
O=C1C=CC(=O)N1c1ccccc1N1C(=O)C=CC1=O | . | - | - | 0.32µM | .
CCOc1ccc(OCC)c(NC(=O)c2cnn(-c3ccc(F)cc3)c2-n2cccc2)c1 | - | - | - | - | .
CC(=O)C1=CCC(c2cccc3ccccc23)N(S(=O)(=O)c2ccc(C)cc2)C1 (stereo not drawn) | . | - | . | . | .
CC(C)(C)Cc1c(-c2ccc(Br)cc2)nc2ccc(Br)cn12 | . | 40µM | . | . | .
COc1ccc(Cc2c(-c3cccc(Br)c3)nc3ccc(Cl)cn23)c(C)c1 | . | - | . | . | .
COc1ccc(Cc2c(-c3ccccc3)nc3ccc(Br)cn23)c(C)c1 | . | 32µM | . | . | .
O=C(CN1CC[n+]2c(-c3cccs3)csc21)c1ccc(-c2ccccc2)cc1 | - | 16µM | - | - | -
Cc1ccc(/C=c2\s/c(=C(/C#N)C(=O)N3CCCC3)n(Cc3ccco3)c2=O)s1 | - | - | - | 25µM | -
COc1cc(/C=c2\s/c(=C(/C#N)C(=O)N3CCCC3)n(-c3ccccc3)c2=O)ccc1O | - | - | - | - | -
Cc1ccc(S(=O)(=O)/N=C2\C=C(NS(=O)(=O)c3ccccc3)C(=O)c3ccccc32)cc1 | . | - | - | ? | .
Cc1ccc(S(=O)(=O)/N=C2/C=C(C3C(=O)CC(C)(C)CC3=O)C(=O)c3ccccc32)cc1 | ? | - | - | 18µM | -
Cc1ccc(NC(=O)/C=C\C(=O)NCC(=O)O)cc1C | - | - | - | 45µM | -
CCOC(=O)CNCCC(=O)c1ccc(Br)cc1 | - | - | - | 0.28µM | .
CC(C)c1ccc(NCCC(=O)c2ccc(Br)cc2)cc1 | - | - | - | 56µM | -
CC(=O)c1ccc(NCCC(=O)c2ccccc2)cc1 | - | - | - | 50µM | -
Cc1cccc(NCCC(=O)c2ccc(Br)cc2)c1 | - | . | - | 25µM | -
Cc1ccc(C(=O)CCC(=O)Nc2cccc(C)c2)cc1 | - | - | - | - | -
Cc1ccc(OCCOCCn2c(-c3ccc(Cl)cc3)nc3ccccc3c2=O)cc1 | - | - | - | - | .
CCCCCn1c(=O)[nH]c2cc(C(=O)NC(C)CC)ccc2c1=O (stereo not drawn) | - | - | - | - | .
COc1ccc(CN2CCOc3c(O)cc(-c4cc(C)c5ccc(F)cc5n4)cc3C2)c(O)c1 | . | - | . | . | .
CCc1ccc(OCC(=O)Nc2ncn[nH]2)c(Br)c1 | - | - | - | - | .
COc1ccc(C(=O)c2oc3ccccc3c2NC(=O)c2cc(=O)c3ccc(C)cc3o2)cc1Cl | - | - | - | - | .
CC(=O)Nc1ccc(S(=O)(=O)O)c2cc(S(=O)(=O)O)c(N=Nc3ccc(N=Nc4ccc(S(=O)(=O)O)cc4)c4ccc(S(=O)(=O)O)cc34)c(O)c12 | . | - | - | - | .
SMILES | miR-21 reporter | PINK1 expr mod | TrxR1 substrate | rTrxR1 inhibitor | GALK inhibitor
O=S(=O)(O)c1ccc2c(N=Nc3ccc(S(=O)(=O)O)c4ccccc34)c(O)c(S(=O)(=O)O)cc2c1 | . | - | - | 71µM | .
CSc1nccc(-c2cc(Cl)c3c(c2)CC(CNC(=O)c2nonc2C)O3)n1 (stereo not drawn) | . | - | . | . | .
N=C(N)SCc1ncccc1O | - | - | - | 32µM | -
O=C(O)CNC(=O)c1ccc2c(c1)OCCO2 | - | 13µM | - | - | -
COc1ccc(C(C)=O)cc1CSc1nc2cc(C(=O)O)ccc2c(=O)n1Cc1ccccc1 | - | - | - | 28µM | -
Cn1ncc(S(=O)(=O)Cc2ccccc2)c(Cl)c1=O | - | - | - | 1.1µM | -
O=C(NC1CCCCC1)Sc1ccc(Cl)cc1 | - | - | - | 18µM | -
COc1ccc(CCN2CC(C(=O)N(C)Cc3ccc(C)o3)CCC2=O)cc1 (stereo not drawn) | - | - | - | 50µM | -
COc1ccccc1CN1CC(C(=O)NCCc2ccc(C)o2)CCC1=O (stereo not drawn) | - | - | - | 50µM | -
COc1ccccc1CN1CC(C(=O)N(C)Cc2ccc(C)o2)CCC1=O (stereo not drawn) | - | - | - | 35µM | -
COC(=O)c1c(OCc2ccccc2)cc(=O)n2c1CCN(Cc1cccc(C)n1)CC2 | . | - | . | . | .
N#Cc1ccccc1Cn1c(SCC(=O)Nc2ccc(F)cc2)nc2ccccc21 | - | - | - | - | .
